## AlphaSeq binding of Ab-14 heavy chain variants to a spike HR2 peptide

Source: Engelhart et al. 2022 (doi:10.1038/s41597-022-01779-4), MIT Lincoln Laboratory and A-Alpha Bio; data file from the FLAb repository.

The target is the same throughout: PDVDLGDISGINAS, from the HR2 region of SARS-CoV-2 spike.

Parent scFv Ab-14: VH joined to VL by a 15-residue (Gly4Ser)3 linker. Changes lie in the heavy chain CDRs alone.
VH: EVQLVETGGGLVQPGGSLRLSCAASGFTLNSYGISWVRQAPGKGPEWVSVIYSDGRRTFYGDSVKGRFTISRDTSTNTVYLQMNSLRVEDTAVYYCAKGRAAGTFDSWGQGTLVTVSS
VL: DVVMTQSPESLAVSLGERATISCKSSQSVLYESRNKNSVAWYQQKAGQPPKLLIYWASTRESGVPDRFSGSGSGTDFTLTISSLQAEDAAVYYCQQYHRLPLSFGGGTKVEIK

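AAYL49 was designed without a model: most single CDR substitutions and a random sample of double and triple ones. In AlphaSeq, yeast of one mating type display the scFv and yeast of the other type display the target. After mating in shaken culture at 30 °C for 16 h, diploids were selected and their barcode pairs sequenced. Each replicate has its own calibration line, from reference interactions of the BCL2 family. Each pool was mated in three replicate cultures.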

Each variant is given by its three heavy chain CDRs, as the data file delimits them; those of the parent are GFTLNSYGIS, VIYSDGRRTFYGDSVK, GRAAGTFDS. This list gathers variants with a substitution at G55 (VH, numbered from residue 1). Numbers give log10(Kd / nM), so 0 is 1 nM and 3 is 1 µM. Smaller is tighter. "nd" marks a missing value. The strain was present, yet no cells mated with the target were sequenced in that replicate, which points to weak or no binding. Background: pairings of library AAYL49 with three empty control strains gave a value in 15% of cases (median 4.06, 5th percentile 2.83). Values in that range, when seen in few replicates, are hard to tell from nonspecific mating. Also given: how often the same scFv was detected with the empty control strains.

Variant IFTLNSYGIS / VIYSDFRRTQYGDSVK / GRAAGTFDS showed nd, nd, nd (controls 0 of 9).
Variant GFTLNSYGIS / VIYSDPRRTFYPDSVK / GRAAGRFDS showed nd, nd, nd (controls 2 of 9).
Variant GKTLNSYGIS / VIYSDCRRTFYGDSVK / GRAAGVFDS showed nd, nd, 5.19 (controls 4 of 9).
Variant GFTLNSYGIS / VIYSDYRRTFYGDSVK / GRVAGTFDS showed nd, nd, nd (controls 1 of 9).
Variant GFTLNSYGIS / VIESDQRRTSYGDSVK / GRAAGTFDS showed nd, nd, nd (controls 0 of 9).
Variant GFTLNSYGIS / VIYSDCRRTPYGDSVK / GRAAGTFGS showed nd, 3.37, nd (controls 3 of 9).
Variant GFTLYSYGMS / VIYSDCRRTFYGDSVK / GRAAGTFDS showed nd, nd, nd (controls 1 of 9).
Variant GFTLNSYGIS / VIYSHHRRTFYGDSVK / GNAAGTFDS showed nd, nd, nd (controls 1 of 9).
Variant GFTLNSYGIS / VIYSDERRTFYGDSVK / GRAAGTYDM showed 2.94, nd, nd (controls 0 of 9).
Variant MFTLNSYGIS / VIYSDERRTFYGDSVK / GRAAGTFDQ showed nd, nd, nd (controls 0 of 9).
Variant GFTLNSYGIS / HIYSEFRRTFYGDSVK / GRAAGTFDS showed nd, nd, nd (controls 0 of 9).
Variant GFTLNSYGIS / VIPSDARRTFYGDSVK / GRAAGTFDS showed nd, 3.80, 3.39 (controls 4 of 9).
Variant GFTLHSYGIS / VIYSDWRRTFYGDSVK / GREAGTFDS showed nd, nd, nd (controls 0 of 9).
Variant GFTLNSYGIS / HIYSDIRRTFYGDVVK / GRAAGTFDS showed nd, nd, nd (controls 3 of 9).
Variant GFTLNSYGIS / VIYSDFRRTFYGDSVK / GRAARTFDS showed nd, nd, nd (controls 2 of 9).
Variant GFTLNSPGIS / VIYSDLRRTFYGDSVE / GRAAGTFDS showed nd, nd, nd (controls 1 of 9).
Variant GFTLNSYGIS / VIYSDNRRTFYGDSVK / GRAAPTFDL showed nd, nd, 2.25 (controls 1 of 9).
Variant GFTLNSYGIS / VIYSDCRRTFYGFSVK / GRAAVTFDS showed 2.55, nd, nd (controls 0 of 9).
Variant GFTLNSYGIS / VIYSDTRRTFYHDSVK / GRAAGTFDP showed 4.45, nd, nd (controls 2 of 9).
Variant GFTLNSYGIK / VIYSDVRRTFYGDSVK / GRAAGTFDS showed nd, nd, nd (controls 1 of 9).
Variant GFTLNSYGIS / VIYSDERRTFYGDSTV / GRAAGTFDS showed nd, nd, nd (controls 1 of 9).
Variant GFTLNDYGIS / VIYSDRRRTFYKDSVK / GRAAGTFDS showed nd, nd, nd (controls 1 of 9).
Variant GFTLNSYGIS / VIYSDECRTFYGWSVK / GRAAGTFDS showed nd, nd, nd (controls 0 of 9).
Variant GFTLNSYGIS / VIYSDNRRTACGDSVK / GRAAGTFDS showed nd, nd, nd (controls 1 of 9).
Variant GFTLNSYGIS / VIYSDTRRTFYGYSVK / GRAAGTFDS showed nd, nd, nd (controls 0 of 9).
Variant GGTLNSYGIS / VIYSDCRRTFYGDSVK / GRAAGTFDY showed nd, 4.75, nd (controls 1 of 9).
Variant GSTLNSYGIS / VIYSDVRRTFYGISVK / GRAAGTFDS showed nd, nd, nd (controls 0 of 9).
Variant GFTLNSYGIS / VIYSDPRRTFYGDSVK / GRAAGTFRS showed nd, nd, nd (controls 0 of 9).
Variant GFTLNSHGIS / VIYSDYRRTFYGDSVK / GRAAGYFDS showed nd, nd, nd (controls 0 of 9).
Variant GFTLNWYGIS / VIYSDKRRTFYGDSVK / GRAAGTFDS showed nd, nd, nd (controls 5 of 9).
Variant GFTLNSYGIS / VIYSDCRVTRYGDSVK / GRAAGTFDS showed nd, nd, nd (controls 1 of 9).
Variant GETLNSYGIS / VICSDIRRTFYGDSVK / GRAAGTFDS showed 4.58, 3.45, 5.89 (controls 3 of 9).
Variant GFTLNSDGIS / VIYSDRRRTAYGDSVK / GRAAGTFDS showed nd, nd, nd (controls 0 of 9).